The values below are quoted from earlier work in US20060167044A1, “Piperidine derivatives and their use as anti-inflammatory agents” (priority 2004, published 2006).

By UniProt entry, the sequences of proteins in these tests, tags left out. Where a name states a change or a piece, a line headed by the entry shows the natural chain unless it says otherwise.
UniProt P32246: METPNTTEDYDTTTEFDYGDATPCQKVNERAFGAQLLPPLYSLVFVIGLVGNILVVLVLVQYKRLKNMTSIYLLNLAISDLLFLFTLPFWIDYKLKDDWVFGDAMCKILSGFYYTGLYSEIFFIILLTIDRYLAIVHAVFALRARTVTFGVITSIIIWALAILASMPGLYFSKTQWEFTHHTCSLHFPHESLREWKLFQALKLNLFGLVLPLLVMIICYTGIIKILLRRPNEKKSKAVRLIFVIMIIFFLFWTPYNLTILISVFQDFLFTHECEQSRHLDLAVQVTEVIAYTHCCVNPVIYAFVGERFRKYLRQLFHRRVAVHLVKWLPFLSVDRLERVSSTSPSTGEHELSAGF

The test system of data set [1] is heterotopic heart transplant rejection. The settings on record: rat, in vivo.
The next data set relates to UUO kidneys. The settings on record: mouse, in vivo.
Data set [2] concerns the target CCR1 compared with 28 different GPCR's (Homo sapiens, UniProt P32246).
Data set [3] deals with T1, CCR1 (Homo sapiens, UniProt P32246).
Data set [4] has as its target T1, CCR1. The source holds these as a separate data set.
Data set [5] concerns EAE model of multiple sclerosis. As to conditions: rat, in vivo.

Take `C[C@@H]1CN(Cc2ccc(F)cc2)CCN1C(=O)COc1ccc(Cl)cc1NC(N)=O` [BX 471]: in data set [1], the “efficacy in heart transplant rejection” value was “efficacious”; the “extent of monocytic graft infiltration” value is on record as “significantly reduced”; the “prolonging transplantation rejection, combination versus either agent alone” value is “much more efficacious”. In addition, in the data set with UUO kidneys, the “CCR1 and CCR5 mRNA levels” value is listed as “marked reduction”; the “markers of renal fibrosis (interstitial fibroblasts, interstitial volume, mRNA and protein expression for collagen 1)” value is “significantly reduced”; the “reduction of interstitial macrophage and lymphocyte infiltrate” value was 40-60%. The “selectivity for CCR1 compared with 28 different GPCR's” value in data set [2] is “greater than 10,000 fold”. Further, on CCR1 [3], the “displacement of the CCR1 ligands CCL3, CCL5 (RANTES) and CCL7 (MCP-3)” value was “high affinity”. The “functional antagonism (inhibition of CCR1-mediated Ca2+ mobilization, extracellular acidification rate, CD11b expression, leukocyte migration)” value at CCR1 [4] is on record as “potent functional antagonist”. Besides, in the data set on monocytes, the “firm adhesion of monocytes triggered by CCL5 (RANTES)” value is reported as “dose-responsively blocking”. Besides, the clinical score entry in data set [5] is given as “decreased”.
